Measurements as given in ChEMBL document CHEMBL1122801, “Nontricyclic antidepressant agents derived from cis- and trans-1-amino-4-aryltetralins” (J Med Chem, 1984).
pIC50: −log10 of the molar value. Counter-ions that a name gives are not always drawn.

The chains behind the UniProt entries cited, without tags or fusion partners.
UniProt P31652, whole entry: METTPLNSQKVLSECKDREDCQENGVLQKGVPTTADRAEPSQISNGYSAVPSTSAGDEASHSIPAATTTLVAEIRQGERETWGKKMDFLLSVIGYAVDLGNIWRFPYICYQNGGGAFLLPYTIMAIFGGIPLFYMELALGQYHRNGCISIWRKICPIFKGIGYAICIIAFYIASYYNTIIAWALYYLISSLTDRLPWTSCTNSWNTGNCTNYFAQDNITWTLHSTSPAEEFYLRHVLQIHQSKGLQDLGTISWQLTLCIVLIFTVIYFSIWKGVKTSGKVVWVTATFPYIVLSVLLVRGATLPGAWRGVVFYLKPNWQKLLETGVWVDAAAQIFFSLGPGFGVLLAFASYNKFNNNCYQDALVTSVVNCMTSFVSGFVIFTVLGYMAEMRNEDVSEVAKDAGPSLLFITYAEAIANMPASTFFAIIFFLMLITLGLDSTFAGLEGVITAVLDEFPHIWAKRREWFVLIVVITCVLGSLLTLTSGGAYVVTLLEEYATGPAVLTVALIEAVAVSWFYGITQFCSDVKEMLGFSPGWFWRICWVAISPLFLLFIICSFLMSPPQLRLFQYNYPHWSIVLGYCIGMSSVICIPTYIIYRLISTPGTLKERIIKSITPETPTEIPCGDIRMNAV
UniProt P23977, whole entry: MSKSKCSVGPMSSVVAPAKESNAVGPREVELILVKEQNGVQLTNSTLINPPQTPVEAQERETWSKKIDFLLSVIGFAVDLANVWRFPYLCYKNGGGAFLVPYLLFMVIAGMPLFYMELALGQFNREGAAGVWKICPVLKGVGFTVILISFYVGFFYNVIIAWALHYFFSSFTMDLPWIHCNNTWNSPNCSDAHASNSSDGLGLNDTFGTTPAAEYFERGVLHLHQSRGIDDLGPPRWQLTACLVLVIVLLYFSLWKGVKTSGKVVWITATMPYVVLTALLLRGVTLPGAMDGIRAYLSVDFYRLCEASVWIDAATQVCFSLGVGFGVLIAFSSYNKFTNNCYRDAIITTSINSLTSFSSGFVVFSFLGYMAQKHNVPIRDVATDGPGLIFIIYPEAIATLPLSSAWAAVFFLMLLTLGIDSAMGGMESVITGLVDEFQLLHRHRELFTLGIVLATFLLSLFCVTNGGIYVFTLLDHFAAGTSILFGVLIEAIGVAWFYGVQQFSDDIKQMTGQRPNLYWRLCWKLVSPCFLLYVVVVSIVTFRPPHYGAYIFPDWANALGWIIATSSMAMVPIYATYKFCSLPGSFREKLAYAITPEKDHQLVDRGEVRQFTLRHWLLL
UniProt Q9WTR4, whole entry: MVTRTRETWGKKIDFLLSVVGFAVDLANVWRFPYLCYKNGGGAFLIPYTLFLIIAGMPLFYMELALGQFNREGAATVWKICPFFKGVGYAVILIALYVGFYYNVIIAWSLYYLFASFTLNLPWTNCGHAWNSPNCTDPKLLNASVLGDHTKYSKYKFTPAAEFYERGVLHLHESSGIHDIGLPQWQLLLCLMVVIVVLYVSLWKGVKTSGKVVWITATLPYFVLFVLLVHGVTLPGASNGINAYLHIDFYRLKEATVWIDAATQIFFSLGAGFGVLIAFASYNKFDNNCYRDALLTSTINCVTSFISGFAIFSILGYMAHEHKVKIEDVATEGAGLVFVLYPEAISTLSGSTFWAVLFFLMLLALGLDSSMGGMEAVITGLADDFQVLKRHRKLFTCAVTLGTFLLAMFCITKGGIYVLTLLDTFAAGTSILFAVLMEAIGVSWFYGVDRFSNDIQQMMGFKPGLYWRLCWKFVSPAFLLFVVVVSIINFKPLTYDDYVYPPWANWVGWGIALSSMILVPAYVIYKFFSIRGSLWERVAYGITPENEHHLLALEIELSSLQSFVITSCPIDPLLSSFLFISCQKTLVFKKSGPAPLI

Tests used:
[1] = target: Sodium-dependent serotonin transporter (Rattus norvegicus, UniProt P31652); type: functional
[2] = target: Sodium-dependent dopamine transporter (Rattus norvegicus, UniProt P23977); type: functional, tissue-based, Striatum
[3] = target: Norepinephrine transporter (Rattus norvegicus, UniProt Q9WTR4); type: functional, tissue-based, Hypothalamus

SMILES	pIC50 [1]	pIC50 [2]	pIC50 [3]
CN[C@H]1CC[C@@H](c2ccc(Oc3ccccc3)cc2)c2ccccc21	5.03	–	–
CN[C@H]1CC[C@@H](c2cccc(OC)c2)c2ccccc21	6.12	–	–
CN[C@H]1CC[C@@H](c2ccccc2OC)c2ccccc21	5.38	–	–
CN[C@@H]1CC[C@@H](c2cccc(OC)c2)c2ccccc21	6.47	–	–
CN[C@@H]1CC[C@@H](c2ccc(Br)cc2)c2ccccc21	7.05	–	–
CCCCOc1ccc([C@@H]2CC[C@@H](NC)c3ccccc32)cc1	5.15	5.17	–
CN[C@@H]1CC[C@@H](c2ccccc2OC)c2ccccc21	5.35	–	–
N[C@H]1CC[C@@H](c2ccc(C(F)(F)F)cc2)c2ccccc21	5.25	–	–
N[C@H]1CC[C@@H](c2cccc(C(F)(F)F)c2)c2ccccc21	5.39	–	–
N[C@H]1CC[C@@H](c2ccc(Cl)c(Cl)c2)c2ccccc21	6.40	–	–
CN[C@H]1CC[C@@H](c2ccc(Br)cc2)c2ccccc21	6.72	–	–
CN[C@H]1CC[C@@H](c2ccc(F)c(OC)c2)c2ccccc21	6.42	–	–
CCCCOc1ccc([C@@H]2CC[C@H](NC)c3ccccc32)cc1	5.24	4.90	–
CN[C@@H]1CC[C@@H](c2ccc(Oc3ccccc3)cc2)c2ccccc21	4.92	–	–
CN(C)[C@H]1CC[C@@H](c2ccccc2)c2ccccc21	5.80	–	–
CN[C@H]1CC[C@@H](c2ccc(Cl)cc2Cl)c2ccccc21	–	–	6.51

SMILES	pIC50 [1]	pIC50 [2]	pIC50 [3]
CN[C@H]1CC[C@@H](c2ccccc2)c2ccccc21	5.46	–	–
CN[C@H]1CC[C@@H](c2cccc(C(F)(F)F)c2)c2ccccc21	6.60	–	–
CN[C@H]1CC[C@@H](c2ccc(C(F)(F)F)cc2)c2ccccc21	6.09	–	–
CN[C@@H]1CC[C@@H](c2ccc(F)c(OC)c2)c2ccccc21	6.22	–	–
CN(C)[C@@H]1CC[C@@H](c2cccc(C(F)(F)F)c2)c2ccccc21	6.66	–	–
CN(C)[C@H]1CC[C@@H](c2ccc(Cl)c(Cl)c2)c2ccccc21	7.15	–	6.40
CN(C)[C@H]1CC[C@@H](c2cccc(C(F)(F)F)c2)c2ccccc21	6.72	–	–
CN[C@@H]1CC[C@@H](c2ccccc2)c2ccccc21 (stereo in doubt; 44) [TAMETRALINE]	6.08	–	–
CN[C@@H]1CC[C@@H](c2ccccc2)c2ccccc21 (stereo in doubt; 45) [TAMETRALINE]	4.85	–	–
CN[C@H]1CC[C@@H](c2ccccc2)c2ccccc21 (stereo in doubt; 50)	5.46	–	–
CN[C@H]1CC[C@@H](c2ccccc2)c2ccccc21 (stereo in doubt; 51)	4.94	–	–
CN[C@H]1CC[C@@H](c2cccc(C(F)(F)F)c2)c2ccccc21 (stereo in doubt; 56)	6.70	–	–
CN[C@H]1CC[C@@H](c2cccc(C(F)(F)F)c2)c2ccccc21 (stereo in doubt; 57)	5.51	–	–
CN1Cc2c(N)cccc2C(c2ccccc2)C1 (centres undefined) [NOMIFENSINE]	5.27	–	–
CN[C@@H]1CC[C@@H](c2ccccc2)c2ccccc21 [TAMETRALINE HYDROCHLORIDE]	5.83	–	–
